These results are taken from patent US20240208896A1, “PRODRUGS OF KV7 CHANNEL OPENERS” (Xyzagen, Inc., priority 2021, published 2024).

This series concerns mouse maximal electroshock (MES) assay. The series can be described thus: Mouse MES assay with plasma and brain concentration, Compound 29 oral. It is filed as in vivo, CF-1 mouse. Conditions: male CF-1 mice; oral 30 mg/kg; 0.25, 0.5 and 1 h.

`CCNC(=O)CC[C@H](N)C(=O)Nc1cc(NCc2ccc(F)cc2)ccc1NC(=O)OCC.Cl` [Compound 29]: the “Exposure of ezogabine in plasma and brain” value was “very high in plasma and was present in brain”.
